From published antibiotic growth screens (doi:10.1038/s41589-023-01349-8) come the findings set out here.

Molecules are shown by their SMILES. The list shows a part of the results.

The experiment deals with A. baumannii ATCC 17978. The experiment can be described thus: relative growth (fraction of control); higher = less inhibition. Conditions: 50 µM.
For the compound `Cc1cn([C@H]2C[C@@H](NC(=O)C(C)(C)C)[C@@H](CO)O2)c(=O)[nH]c1=O`, the relative growth turned out to be 1.11.
For `COC(=O)C1=C(C)NC(C)=C(C(=O)OC)C1c1ccccc1[N+](=O)[O-]`, the relative growth stood at 1.09.
As for `C=C1C[C@@]23CC[C@@H]4[C@@](C)(CCC[C@@]4(C)C(=O)OC)[C@H]2CC[C@@H]1C3`, the figure is 0.986.
In turn, `Cc1cc(S(=O)(=O)N2CCCO[C@@H]2CNC(=O)C(=O)NCc2ccncc2)ccc1F` displayed a relative growth of 1.14.
Compound `CN1CCN(CCCN2c3ccccc3Sc3ccc(C(F)(F)F)cc32)CC1.Cl.Cl` had a relative growth of 0.66.
As for `N=C(N)SCCN1C(=O)c2ccccc2C1=O`, the figure is 1.21; as for `CCOC(=O)CN(C#N)c1nc(C)cc(C)n1`, 0.979.
For `Cn1nnnc1SCC(=O)NC(C)(C)C`, the relative growth is 0.955.
As for `COCCOC(=O)N1C(=O)[C@@]2(c3ccccc31)[C@H](C(=O)N1CCc3cc(OC)c(OC)cc3C1)[C@H]1C(=O)O[C@H](c3ccccc3)[C@H](c3ccccc3)N1[C@@H]2c1ccc(O)cc1`, the figure is 1.03; as for `Cc1n[nH]c(=O)nc1NC1CC1`, 1.02; as for `O=C(CN1CCOCC1)NCC[C@@H]1CC[C@@H](NC(=O)c2ccc3c(c2)OCO3)[C@@H](CO)O1`, 0.947.
`O=C([O-])c1cc(=O)c2c(OCC(O)COc3cccc4oc(C(=O)[O-])cc(=O)c34)cccc2o1.[Na+].[Na+]` yielded a relative growth of 0.992.
As for `O=c1[nH]c(=O)c2cc(Br)ccc2[nH]1`, the figure is 1.09.
Regarding `C[C@H](O)C#Cc1ccc2c(c1)O[C@@H](CN(C)C(=O)c1ccccc1)[C@H](C)CN([C@@H](C)CO)S2(=O)=O`, the relative growth was 0.918.
As for `C[C@@H](O)C#Cc1ccc2c(c1)O[C@@H](CN(C)C(=O)Nc1ccccc1)[C@@H](C)CN([C@@H](C)CO)S2(=O)=O`, the figure is 0.816; as for `Nc1ccc(O)c(C(=O)O)c1`, 0.936; as for `Cc1noc(C)c1NC(=O)N[C@@H]1CC[C@H](CC(=O)NCCCN(C)C)O[C@H]1CO`, 0.811.
As for `Nc1nc(=O)c2c([nH]1)NCC(CNc1ccc(C(=O)N[C@H](CCC(=O)O)C(=O)O)cc1)=N2`, the figure is 0.901; as for `O=C(C[C@@H]1C=C[C@@H](NS(=O)(=O)c2ccc(F)cc2)[C@H](CO)O1)N1CCC(Cc2ccccc2)CC1`, 0.879; as for `Cc1cc(OC(=O)c2c(C)cc(O)cc2O)cc(O)c1C(=O)O`, 0.923.
As for `COc1nc(C#N)nc(N2CCCCC2)n1`, the figure is 0.945; as for `CN(C)CCCNC(=O)C[C@H]1CC[C@@H](NS(=O)(=O)c2ccccc2)[C@@H](CO)O1`, 1.06.
Regarding `C[n+]1c2cc(N)ccc2cc2ccc(N)cc21.[Cl-]`, the relative growth stood at 0.389.
As for `C=CCN1C(=O)[C@]2(O[C@H](CCn3cc(CCO)nn3)[C@@H]([Si](C)(C)c3ccc(OC)cc3)[C@@H]2C)c2cc(N3CCC3=O)ccc21`, the figure is 0.736; as for `C[C@@H]1CN([C@H](C)CO)C(=O)c2cc(C#CC3(O)CCCC3)cnc2O[C@H]1CN(C)S(=O)(=O)c1ccc(F)cc1`, 0.976; as for `CO[C@@]1(NC(=O)C2SC(=C(C(N)=O)C(=O)O)S2)C(=O)N2C(C(=O)O)=C(CSc3nnnn3C)CS[C@@H]21` (stereo partly specified), 0.315.
As for `Cc1cc(NC(=O)C2=C(O)c3ccccc3S(=O)(=O)N2C)no1`, the figure is 0.899.
Take `CO[C@@H]1[C@@H](O[C@@H]2O[C@H](C)[C@@H](O[C@H]3C[C@@](C)(O)[C@H](O)[C@H](C)O3)[C@H](N(C)C)[C@H]2O)[C@@H](CC=O)C[C@@H](C)[C@@H](O[C@H]2CC[C@H](N(C)C)[C@@H](C)O2)/C=C/C=C/C[C@H](C)OC(=O)C[C@H]1O`: the relative growth stood at 0.805.
As for `O=C(N[C@H]1CC[C@@H](CCNS(=O)(=O)c2ccc(F)cc2)O[C@@H]1CO)C1CC1`, the figure is 1.09; as for `CC(C)NC(=O)N(C)C[C@H]1Oc2cc(C#Cc3cccc(F)c3)ccc2S(=O)(=O)N([C@H](C)CO)C[C@@H]1C`, 0.903.
Take `CN(C)CC(c1ccc(O)cc1)C1(O)CCCCC1.O=C(O)CCC(=O)O` (stereo unspecified): the relative growth was 0.946.
As for `CN1C[C@@H](O)COC[C@@H]2O[C@@H](CC(=O)N3CCN(c4ccccc4)CC3)CC[C@H]21`, the figure is 0.978; as for `COCC(=O)N(C)C[C@@H]1Oc2cc(C#CC(C)(C)O)ccc2S(=O)(=O)N([C@H](C)CO)C[C@H]1C`, 1.08.
`C[C@H]1CNC(=O)O1` returned a relative growth of 1.17.
As for `CCCCOc1cc(C(=O)OCCN(CC)CC)ccc1N.Cl`, the figure is 0.868; as for `C=CCN1C(=O)[C@@H]2[C@@H](C1=O)[C@@H]1C=C[C@@H]2C1`, 0.97; as for `O=C(CN1CCOCC1)N[C@H]1CC[C@@H](CCNC(=O)Nc2cc(F)ccc2F)O[C@H]1CO`, 0.829.
As for `CC1CC[C@@]2(OC1)O[C@H]1CC3C4CC[C@@H]5C[C@@H](O)CC[C@]5(C)C4CC[C@]3(C)[C@H]1[C@@H]2C` (stereo partly specified), the figure is 0.766; as for `N#Cc1cnc2c(C(N)=O)cnn2c1N`, 1.04.
As for `Nc1ccc(S(=O)(=O)Nc2ncccn2)cc1`, the figure is 1.03; as for `C=CCC[C@@H](Cc1ccc(F)cc1)C(=O)O[C@H](CNC(=O)[C@@H](CC=C)CC(=O)N[C@H](CO)Cc1ccccc1)c1ccccc1`, 0.967; as for `COc1ccc(N2C(=O)N3CCc4cc(OC)c(OC)cc4[C@@H]3[C@@H](Cc3ccccc3)[C@H]2COC(=O)NCCCCCC(=O)NO)cc1`, 0.99.
On to `C[C@H](O)C#Cc1ccc2c(c1)O[C@H](CN(C)C(=O)Nc1ccccc1)[C@H](C)CN([C@@H](C)CO)S2(=O)=O`, for which the relative growth came to 1.08.
For `O=C(CCCCCNC(=O)OC[C@]12N=C3SCc4ccccc4CN3[C@H](c3ccccc3O1)[C@H]2COC(=O)c1ccccc1)NO`, the relative growth stood at 0.921.
As for `C[C@H]1CN([C@@H](C)CO)S(=O)(=O)c2ccc(C#Cc3ccc(F)cc3)cc2O[C@H]1CN(C)S(=O)(=O)c1ccc(F)cc1`, the figure is 0.903.
As for `Cc1ccc2c(c1)C(=O)C[C@@H](c1ccc(Cl)cc1Cl)O2`, the figure is 1.12.
`C[C@]12C=CC(=O)C=C1CC[C@@H]1[C@@H]2[C@@H](O)C[C@@]2(C)[C@H]1CC[C@]2(O)C(=O)COC(=O)c1ccc(CO[N+](=O)[O-])cc1` displayed a relative growth of 1.02.
As for `Cc1cc(C(=O)N2CCNC(=O)C2(C)C)no1`, the figure is 0.933.
As for `CS(=O)(=O)O.Oc1ccc(C2CNCCc3c2cc(O)c(O)c3Cl)cc1` (stereo unspecified), the figure is 1.03; as for `COc1cc2ccc(=O)oc2c(O[C@H]2O[C@@H](CO)[C@@H](O)[C@@H](O)[C@@H]2O)c1O`, 1.08.
On to `CO[C@H]1CN(C)C(=O)c2cc(NC(=O)C3CC3)ccc2OC[C@@H](C)N(C(=O)Cc2ccccn2)C[C@H]1C`, for which the relative growth was determined as 1.03.
